In this assay the test system is CSF-1 induced MCP-1 expression in human monocytes. The assay can be described thus: cells. The settings on record: Monocyte, read-out: IC50 (mM) (Mean (n = 3) ± Std. Dev).

For orientation: IC50 means the point on the concentration scale where inhibition reaches its midpoint. Turning to `CC1(C)CC=C(c2nc([C@H]3CC(C)(C)O[C@@](C)(CO)C3)ccc2NC(=O)c2nc(C#N)c[nH]2)CC1` (single isomer, unassigned) [(I-M7-2R,4S)], the IC50 stood at 0.00237 ± 0.00046 mM.
In the case of `CC1(C)CC=C(c2nc([C@@H]3CC(C)(C)O[C@](C)(CO)C3)ccc2NC(=O)c2nc(C#N)c[nH]2)CC1` (single isomer, unassigned) [(I-M7-2S,4R)], the IC50 was determined as 0.001 ± 0.00055 mM.

These data come from patent US10071991B2, “Substituted pyridine derivatives useful as c-fms kinase inhibitors” (Janssen Pharmaceutica NV, priority 2013, dated 2018).
